{"source": "patent US20260337190A1", "about": "“CRYSTAL FORM OF PYRIDINOPYRIMIDINONE COMPOUND, ACID SALT THEREOF, CRYSTAL FORM OF ACID SALT THEREOF, AND USE” (Wuhan Humanwell Innovative Drug Research and Development …, priority 2022, published 2026)", "origin": "cited, not measured here", "key": {"[1]": {"test_system": "SOS1", "details": "cited from earlier work"}, "[2]": {"test_system": "cancer cells", "details": "cited from earlier work"}}, "data": [{"smiles": "COc1cc2nc(C)nc(N[C@H](C)c3cc(N)cc(C(F)(F)F)c3)c2cc1O[C@H]1CCOC1", "note": "[BI-3406]", "values": [{"measurement": "formation of KRAS-GTP", "setting": "[1]", "result": "reduce the formation of KRAS-GTP"}, {"measurement": "interaction of SOS1 with KRAS", "setting": "[1]", "result": "prevent its interaction with KRAS"}, {"measurement": "KRAS-driven proliferation of various cancer cells", "setting": "[2]", "result": "inhibit KRAS-driven proliferation of various cancer cells"}]}]}
